Binding of CDR-mutated scFvs to a peptide of the spike HR2 region

From the AlphaSeq antibody data of Engelhart et al. 2022 (doi:10.1038/s41597-022-01779-4), copy in the FLAb collection.

Target peptide (SARS-CoV-2 spike, HR2 region): PDVDLGDISGINAS

Parent scFv Ab-14: VH joined to VL by the linker GGGGSGGGGSGGGGS. Changes lie in the heavy chain CDRs alone.
VH: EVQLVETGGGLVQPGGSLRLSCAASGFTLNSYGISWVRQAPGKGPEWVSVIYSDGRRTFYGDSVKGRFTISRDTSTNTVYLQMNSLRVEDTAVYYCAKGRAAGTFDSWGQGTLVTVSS
VL: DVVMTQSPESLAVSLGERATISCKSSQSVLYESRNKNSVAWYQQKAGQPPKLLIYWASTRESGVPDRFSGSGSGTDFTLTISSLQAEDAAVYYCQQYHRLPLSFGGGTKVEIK

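AAYL49 was designed without a model: most single CDR substitutions and a random sample of double and triple ones. The scFvs were displayed on barcoded MATa yeast, the peptide on MATalpha yeast. Binding brings cells together so that they mate, and sequencing counts the barcode pairs among the diploids. Each replicate has its own calibration line, from reference interactions of the BCL2 family. Mating was done three times.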

Substitutions are numbered in sequence along the VH above, starting at 1 (not Kabat). Kd is apparent (estimated from mating counts) and averaged on the log scale over replicates with a signal. Smaller is tighter. A pair that was not seen in any replicate is written "nd"; this usually means weak binding, but a binder can also be missed. Nonspecific signal, from three strains lacking the peptide, appeared in 15% of pairings of library AAYL49, centred on 11 µM (5% of these signals below 680 nM); values are not corrected for it.

apparent Kd,seen in,changes
1.8 nM,3 of 3,L29V I34G S35Q
500 nM,3 of 3,Y32M K65L A102T
nd,0 of 3,I34W R57I G61F
9.1 µM,1 of 3,L29Q S35N V50C
nd,0 of 3,G26D S63L S107M
5.8 µM,2 of 3,S31T G33D Y52I
nd,0 of 3,Y32E G33T A102L
nd,0 of 3,S53L R57I A101Q
nd,0 of 3,F59N Y60E S63T
4.5 µM,1 of 3,F27W N30R D106C
nd,0 of 3,R56W F59D Y60N
57 µM,2 of 3,N30L I51G D62Y
nd,0 of 3,Y60M S63K
nd,0 of 3,F27E S35E R56M
nd,0 of 3,I34V G55W R57A
nd,0 of 3,D54Q T58L G99F
nd,0 of 3,S31C G55R F105T
1.4 µM,3 of 3,G61N A101P D106K
nd,0 of 3,F27N S35N T104Y
450 nM,1 of 3,N30H S31T R100A
150 nM,1 of 3,S31N Y60K D106V
13 µM,1 of 3,I51N K65R
54 µM,1 of 3,S53T V64R T104S
1.5 µM,2 of 3,F27Q S31A K65I
170 µM,1 of 3,L29R S53P D106K
11 µM,2 of 3,I51H D62H S63E
48 µM,2 of 3,V50H S53I G103L
nd,0 of 3,G26H G33H D106R
nd,0 of 3,N30W S35N S107F
11 µM,1 of 3,S35A A101W D106G
nd,0 of 3,D54R T104D D106L
2.4 µM,1 of 3,G33L I51P
nd,0 of 3,G26V S53R K65H
1.9 µM,1 of 3,S53P K65T G99V
nd,0 of 3,G33Y D54Q A101V
nd,0 of 3,S31E G99T
1.1 nM,3 of 3,T28S N30L S53A
nd,0 of 3,Y32T R57P G61V
nd,0 of 3,I51L Y52F T58W
14 µM,2 of 3,F27T S63T A101P
4.3 nM,3 of 3,N30E R100Y D106S
230 nM,1 of 3,L29N G55N V64A
nd,0 of 3,I34H R56C G99Y
nd,0 of 3,Y52G S53D S107T
43 µM,2 of 3,D54P S63L F105C
nd,0 of 3,R56C T58F A101M
4.5 µM,1 of 3,N30Q V50W
89 µM,1 of 3,G26F S35R S53F
nd,0 of 3,S35C R56V T104V
nd,0 of 3,V50L R57D Y60V
nd,0 of 3,R56D V64Y G99T
1.5 µM,1 of 3,L29M Y60L D62I
nd,0 of 3,F27T D54Y

For reference, 8 entries of the list once more:

| changes | apparent Kd | seen in |
|---|---|---|
| Y32E G33T A102L | nd | 0 of 3 |
| D54P S63L F105C | 43 µM | 2 of 3 |
| I34H R56C G99Y | nd | 0 of 3 |
| I34W R57I G61F | nd | 0 of 3 |
| R56W F59D Y60N | nd | 0 of 3 |
| N30Q V50W | 4.5 µM | 1 of 3 |
| F27N S35N T104Y | nd | 0 of 3 |
| S53P K65T G99V | 1.9 µM | 1 of 3 |

For reference, the parent read 4.4 nM as the reference entry and 13 µM (one replicate of three) as a member of this library.